Experimental data reported in ChEMBL document CHEMBL1124092 (J Med Chem, 1988).

Amino acid sequences for entries named in this document (tags omitted). A change or cut given only in a name is not applied to a line headed by its entry.
UniProt P28564, whole entry: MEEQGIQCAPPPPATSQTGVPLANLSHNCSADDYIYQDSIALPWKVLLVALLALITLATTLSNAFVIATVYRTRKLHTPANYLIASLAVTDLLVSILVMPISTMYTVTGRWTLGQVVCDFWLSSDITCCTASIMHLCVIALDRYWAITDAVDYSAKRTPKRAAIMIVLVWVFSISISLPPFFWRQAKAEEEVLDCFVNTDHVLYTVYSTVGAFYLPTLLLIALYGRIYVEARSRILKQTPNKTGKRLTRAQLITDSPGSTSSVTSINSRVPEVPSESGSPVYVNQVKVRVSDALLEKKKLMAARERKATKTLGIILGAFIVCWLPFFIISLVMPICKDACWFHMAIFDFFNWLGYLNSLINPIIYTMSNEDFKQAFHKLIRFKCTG
UniProt P30994: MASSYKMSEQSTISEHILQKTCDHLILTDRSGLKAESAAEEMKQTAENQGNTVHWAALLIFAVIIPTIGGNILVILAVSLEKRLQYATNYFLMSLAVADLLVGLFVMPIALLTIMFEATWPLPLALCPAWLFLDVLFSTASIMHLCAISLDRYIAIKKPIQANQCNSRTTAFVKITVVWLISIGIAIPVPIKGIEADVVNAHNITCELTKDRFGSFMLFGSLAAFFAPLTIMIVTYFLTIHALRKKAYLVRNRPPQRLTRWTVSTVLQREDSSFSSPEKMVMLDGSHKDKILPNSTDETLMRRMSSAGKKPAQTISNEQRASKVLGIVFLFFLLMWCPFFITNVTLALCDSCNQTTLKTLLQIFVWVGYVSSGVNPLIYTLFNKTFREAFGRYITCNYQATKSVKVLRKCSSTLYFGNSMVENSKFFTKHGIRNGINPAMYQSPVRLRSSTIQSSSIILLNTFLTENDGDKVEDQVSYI
UniProt P08909: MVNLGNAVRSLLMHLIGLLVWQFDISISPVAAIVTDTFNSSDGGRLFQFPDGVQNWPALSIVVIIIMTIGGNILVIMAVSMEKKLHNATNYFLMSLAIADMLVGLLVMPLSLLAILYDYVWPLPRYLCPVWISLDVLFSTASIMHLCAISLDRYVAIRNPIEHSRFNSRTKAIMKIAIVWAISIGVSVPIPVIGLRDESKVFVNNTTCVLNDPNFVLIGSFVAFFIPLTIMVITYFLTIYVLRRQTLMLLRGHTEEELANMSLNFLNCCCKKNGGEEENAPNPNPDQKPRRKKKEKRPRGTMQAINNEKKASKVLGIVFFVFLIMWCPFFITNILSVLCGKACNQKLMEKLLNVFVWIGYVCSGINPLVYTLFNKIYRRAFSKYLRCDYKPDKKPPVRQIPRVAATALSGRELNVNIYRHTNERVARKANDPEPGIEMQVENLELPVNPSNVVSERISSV
UniProt P14842: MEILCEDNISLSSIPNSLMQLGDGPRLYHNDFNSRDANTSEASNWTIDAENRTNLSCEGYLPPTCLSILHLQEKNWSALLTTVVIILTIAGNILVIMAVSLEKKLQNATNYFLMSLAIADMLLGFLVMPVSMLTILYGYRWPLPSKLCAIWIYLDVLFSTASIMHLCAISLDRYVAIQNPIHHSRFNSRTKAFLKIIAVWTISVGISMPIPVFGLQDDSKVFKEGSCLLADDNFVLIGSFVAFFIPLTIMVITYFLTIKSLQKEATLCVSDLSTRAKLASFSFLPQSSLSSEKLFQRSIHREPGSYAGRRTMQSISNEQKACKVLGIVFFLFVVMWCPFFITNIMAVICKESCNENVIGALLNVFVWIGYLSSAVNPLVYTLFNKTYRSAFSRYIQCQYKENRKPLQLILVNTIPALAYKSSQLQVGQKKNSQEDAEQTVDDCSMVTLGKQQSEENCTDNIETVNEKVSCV

Columns and labels:
[1] = molecular target: 5-hydroxytryptamine receptor 1B (Rattus norvegicus, UniProt P28564); test: Evaluated for binding affinity towards 5-hydroxytryptamine 1B receptor
[2] = molecular target: Serotonin 2 (5-HT2) receptor (Rattus norvegicus, UniProt P30994+P08909+P14842); test: Binding affinity towards 5-hydroxytryptamine 2 receptor using [3H]- 1-(4-bromo-2,5-dimethoxy-phenyl)-2-aminopropane (D) as radioligand; format: protein assay

**Q.** How did the Ki [1] turn out when CCCN(CCC)C1CCc2cccc(O)c2C1 (configuration not stated) [8-OH-DPAT] was run?
**A.** > 10 µM

**Q.** For COc1ccc2[nH]cc(CCN)c2c1 [5-METHOXYTRYPTAMINE], which Ki [2] is on record?
**A.** 0.0048 µM
